Experimental data reported in paper PMC7101311, “Structural basis for the increased processivity of D-family DNA polymerases in complex with PCNA” (Nature Communications, 2020).

T1: His-tagged DNA primase PriS-PriL(1–210) from Pyrococcus abyssi (Pyrococcus abyssi, UniProt Q9V292 1-345; Q9V291 1-210)
T1 construct: DNA primase small subunit PriS, Pyrococcus abyssi; open reading frame optimized and synthesized; DNA primase large subunit PriL, Pyrococcus abyssi, residues 1-210; The methods give a His14 tag on PriS; also called His6-tagged primase; immobilized primase; source: E. coli BL21-CodonPlus (DE3)-RIPL, polycistronic construct, purified (heat step, HisTrap, heparin, size exclusion); not shown: His14, …
T1 sequence (looked up) 1: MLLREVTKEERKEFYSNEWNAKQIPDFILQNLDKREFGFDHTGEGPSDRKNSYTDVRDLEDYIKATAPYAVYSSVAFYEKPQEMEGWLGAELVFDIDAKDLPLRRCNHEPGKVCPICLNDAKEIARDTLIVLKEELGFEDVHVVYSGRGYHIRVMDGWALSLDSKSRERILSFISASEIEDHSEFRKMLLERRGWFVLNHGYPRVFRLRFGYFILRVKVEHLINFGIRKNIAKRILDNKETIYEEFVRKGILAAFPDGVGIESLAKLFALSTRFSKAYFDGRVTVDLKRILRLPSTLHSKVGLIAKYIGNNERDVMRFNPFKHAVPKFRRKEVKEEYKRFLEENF
T1 sequence (looked up) 2: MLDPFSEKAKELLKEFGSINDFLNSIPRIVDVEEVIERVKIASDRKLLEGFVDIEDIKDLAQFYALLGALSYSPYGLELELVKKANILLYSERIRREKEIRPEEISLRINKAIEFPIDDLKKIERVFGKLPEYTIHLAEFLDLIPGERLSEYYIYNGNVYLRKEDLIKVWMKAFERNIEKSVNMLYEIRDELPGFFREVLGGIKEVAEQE

T2: DNA primase PriS-PriL(1–210) from Pyrococcus abyssi (Pyrococcus abyssi, UniProt Q9V292 1-345; Q9V291 1-210)
T2 construct: DNA primase small subunit PriS, Pyrococcus abyssi; open reading frame optimized and synthesized; DNA primase large subunit PriL, Pyrococcus abyssi, residues 1-210; Analyte in BLI; source: E. coli BL21-CodonPlus (DE3)-RIPL, polycistronic construct, purified (heat step, HisTrap, heparin, size exclusion)
T2 sequence (looked up) 1: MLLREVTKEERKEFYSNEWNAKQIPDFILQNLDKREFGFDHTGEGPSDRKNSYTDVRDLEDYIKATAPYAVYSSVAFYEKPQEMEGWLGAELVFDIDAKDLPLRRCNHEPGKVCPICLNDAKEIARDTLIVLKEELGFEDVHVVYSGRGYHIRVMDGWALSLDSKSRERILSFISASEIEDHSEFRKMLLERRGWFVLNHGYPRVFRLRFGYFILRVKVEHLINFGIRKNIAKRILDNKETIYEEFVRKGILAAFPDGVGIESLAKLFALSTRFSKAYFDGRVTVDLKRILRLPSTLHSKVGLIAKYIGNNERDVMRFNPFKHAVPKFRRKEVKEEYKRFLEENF
T2 sequence (looked up) 2: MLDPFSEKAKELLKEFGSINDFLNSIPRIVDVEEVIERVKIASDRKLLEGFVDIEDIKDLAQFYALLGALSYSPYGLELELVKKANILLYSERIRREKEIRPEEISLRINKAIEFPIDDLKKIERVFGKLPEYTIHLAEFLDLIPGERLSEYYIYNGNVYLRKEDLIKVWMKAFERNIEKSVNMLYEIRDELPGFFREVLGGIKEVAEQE


Assays:
[1] = target: T1, His-tagged DNA primase PriS-PriL(1–210) …; test: SPR; Biacore T200; ~2000 RU His-tagged PCNA and PriS-PriL(1–210) on an NTA chip, His-tagged MBP as reference; cPIP peptide 0-200 µM, 30 s at 30 µL/min, 25 °C, buffer E with 100 µM EDTA; steady-state fit; conditions: both partners purified
[2] = target: T2, DNA primase PriS-PriL(1–210) from …; test: BLI; Octet RED384; His-MBP-fused DP2 constructs captured on Ni-NTA biosensors (1.5 nm); PCNA or PriS-PriL(1–210) 31.25-2000 nM, 300 s, 25 °C, buffer E (20 mM Na-Hepes pH 8, 0.15 M NaCl) with 0.2 mg/mL BSA; steady-state fit; conditions: both partners purified

Kd [1] [µM] | Kd [2] [µM] | Binder
4 ± 1 | – | KKRVISLEEFFS (C-terminal PIP-box (cPIP) of PolD DP2, Pyrococcus abyssi; limits worked out from the printed residues V1258, I1259, L1261, F1264; also called canonical PIP-box; source: synthetic peptide (Smart Bioscience)) [cPIP peptide (12 amino-acid peptide mimicking the DP2 C-terminal PIP-box)]
– | 0.237 ± 0.022 | MBP–iPIP-cPIP fusion (DP2:1196–1270) (domain or fragment, Pyrococcus abyssi, UniProt Q9V2F4 1381-1455, looked up, C-terminal region of PolD DP2, Pyrococcus abyssi, residues 1196-1270, holding iPIP and cPIP; pIVEX His-MBP-TEV plasmid; TEV-cleavable N-terminal His6-MBP tag, kept for capture on Ni-NTA biosensors; also called His-MBP-fused DP2 construct; source: E. coli BL21-CodonPlus (DE3)-RIPL, purified (HisTrap, heparin, size exclusion; no heat step); not shown: His6, N-terminal, kept; MBP, N-terminal, kept) ETQLTLIVNPNDICQRLVMARTGEVNKSGLLENLSNGSKKTEKAEKAEKPRKKSDEKPKKKRVISLEEFFSRKSK
